The results in this text go back to ChEMBL document CHEMBL3739352, “Anticonvulsant activity, crystal structures, and preliminary safety evaluation of N-trans-cinnamoyl derivatives of selected (un)modified aminoalkanols” (Eur J Med Chem, 2016).

A short description of data set [1]: Protection index, ratio of TD50 for neurotoxicity in ip dosed albino Carworth Farms No.1 mouse to ED50 for anticonvulsant activity in ip dosed albino Carworth Farms No.1 mouse assessed as protection against maximal electroshock-induced seizures. Format: toxicity, organism-based. To be noted: in vivo, read-out: Ratio TD50/ED50. An outline of the steps:
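Graded i.p. doses in 0.5% methylcellulose were given to albino Carworth Farms No.1 mice. ED50 was determined in MES, scPTZ or 6-Hz (32 mA) tests, and TD50 by rotarod. Both were reported with 95% confidence intervals. PI was calculated as TD50/ED50.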

Data set [2] can be described thus: Protection index, ratio of TD50 for neurotoxicity in po dosed Sprague-Dawley rat to ED50 for anticonvulsant activity in po dosed Sprague-Dawley rat assessed as maximal electroshock-induced seizures. Format: toxicity, organism-based. The conditions noted are these: in vivo.

Each structure is given as a SMILES string.

Consider `NC(=O)N1c2ccccc2C=Cc2ccccc21` [CARBAMAZEPINE], for which the selectivity ratio in data set [1] is 5.8; in data set [2], over 68.
